From US8697403B2, “Process and microorganisms for production of lipids from lignocellulosic wastes or residues” (Neste Oil Oyj, priority 2010, dated 2014) come the findings set out here.

The test system of this test is S. milbemycinius GAL4211. Briefly: NTG mutagenesis of spore suspension, killing rate. Conditions: 10^7 spores/ml; NTG 1-3 mg/ml, pH buffers of 7-9, +30° C., 0.5-1 h.

In the case of `CN(N=O)C(=N)N[N+](=O)[O-]`, the Killing rates is 90-100%.
